The structures appear in SMILES notation. Active and inactive are the calls of the source. The calls are words filed in the database; no cut-off is given here.

Holding throughout (format): cell-based
The target in test [1] is T1, Histone-arginine methyltransferase CARM1 (Homo sapiens) (UniProt Q86X55).
T1 sequence (whole entry): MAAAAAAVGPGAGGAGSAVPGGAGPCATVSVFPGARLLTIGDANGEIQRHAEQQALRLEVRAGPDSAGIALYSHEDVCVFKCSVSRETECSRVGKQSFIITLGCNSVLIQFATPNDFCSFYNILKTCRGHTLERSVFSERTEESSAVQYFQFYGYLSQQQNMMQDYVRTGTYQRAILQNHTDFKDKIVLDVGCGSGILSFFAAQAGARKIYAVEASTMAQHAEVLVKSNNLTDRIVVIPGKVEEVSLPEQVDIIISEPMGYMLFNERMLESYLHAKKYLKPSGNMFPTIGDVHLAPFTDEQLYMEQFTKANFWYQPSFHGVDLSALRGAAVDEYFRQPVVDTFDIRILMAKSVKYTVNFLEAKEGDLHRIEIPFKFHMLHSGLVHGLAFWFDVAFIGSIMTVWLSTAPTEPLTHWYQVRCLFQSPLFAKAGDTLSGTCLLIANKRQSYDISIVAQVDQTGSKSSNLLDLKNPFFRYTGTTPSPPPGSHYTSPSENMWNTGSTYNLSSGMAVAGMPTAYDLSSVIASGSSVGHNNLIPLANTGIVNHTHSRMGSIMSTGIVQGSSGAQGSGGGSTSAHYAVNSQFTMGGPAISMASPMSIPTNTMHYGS
In words: Inhibition of full-length Halo-tagged human CARM1 (1 to 608 residues) expressed in 293-F cells at 50 uM using [3H]-SAM and biotinylated histone peptides by scintillation proximity based radiometric assay. The method, boiled down: (§1)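 Radiometric scintillation proximity assay. Tag-cleaved full-length human CARM1 (1–608) at 25 nM, with 0.7 μM C-terminally biotinylated H3 1–25 peptide and 1.9 μM [3H]-SAM in 20 mM bicine pH 8.5. Transfer of tritiated methyl to the peptide counted as cpm. Single compound concentration per line.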

The target of test [2] is T1, Histone-arginine methyltransferase CARM1 (Homo sapiens). In words: Inhibition of full-length Halo-tagged human CARM1 (1 to 608 residues) expressed in 293-F cells at 10 uM using [3H]-SAM and biotinylated histone peptides by scintillation proximity based radiometric assay. The method, boiled down:
as §1
(Scintillation proximity formats need no separation of bound from free tracer.)

Test [3] is described as follows: Selectivity index, ratio of IC50 for RMT6 (unknown origin) to IC50 for full-length Halo-tagged human CARM1 (1 to 608 residues) expressed in 293-F cells.
Test [4] deals with T1, Histone-arginine methyltransferase CARM1 (Homo sapiens). In words: Binding affinity to full-length Halo-tagged human CARM1 (1 to 608 residues) expressed in 293-F cells assessed as change in melting temperature in presencee of SAM by Sypro orange dye based differential scanning fluorimetry. In general terms: In DSF a fluorescence change marks the thermal transition of the protein.

For test [5] the target is unchanged. In words: Binding affinity to full-length Halo-tagged human CARM1 (1 to 608 residues) expressed in 293-F cells assessed as change in melting temperature by Sypro orange dye based differential scanning fluorimetry.
Test [6] has the same target. In words: Binding affinity to full-length Halo-tagged human CARM1 (1 to 608 residues) expressed in 293-F cells assessed as change in aggregation temperature in presence of SAM by differential static light scattering. The method, boiled down:
(§2)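 Full-length human CARM1 (residues 1–608) expressed as a HaloTag fusion in FreeStyle 293-F cells, HaloTag-purified, tag removed with TEV. Heated from 30 to 80 °C at 1 °C/min; aggregation temperature shift read by static light scattering.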

Test [7] has the same target. Kind of test: Binding affinity to full-length Halo-tagged human CARM1 (1 to 608 residues) expressed in 293-F cells assessed as change in aggregation temperature by differential static light scattering. The method, boiled down: as §2

For the compound `CCC(c1ccc(OC)cc1)N(C)CCN` (stereo not given), the inhibition entry in test [1] and in test [2] was “Active” each time.

On to `C[C@H](N)C(=O)NCc1cccnc1Oc1ccc(F)cc1F`, for which the Ratio IC50 in test [3] was over 7.

Consider `Cc1cc(OCCNCCN)ccc1C(C)C`, for which the result in test [4] and in test [6] was Active. Besides, the ΔTm (commonly the change in melting temperature against a reference sample) in test [5] is -2.4 °C; in test [7], -2 °C. The inhibition result in test [1] and in test [2] was “Active” each time.

Consider `NCC(=O)NCCc1ccccc1`, for which the outcome in test [4] and in test [6] was Active. The figures for the ΔTm in test [5] and in test [7] were 0.45 °C and 0.5 °C, respectively. Further, the inhibition result in test [1] and in test [2] was “Active” in each case.
